These results are taken from PubChem BioAssay AID1347120 (National Center for Advancing Translational Sciences (NCATS), 2019).

Each structure is given as a SMILES string. This is a selection; strong and weak results do not stand in their true shares. Results filed as inconclusive are left out. The source made the active and inactive calls. Calls follow the shape of the dose curve; as a rule, active = well fitted activation curve with a large enough effect; inconclusive = small, poorly fitted or top-dose-only effect; inactive = no such curve, though single readings can be large or run the other way.

A short description of the assay: qHTS for Suppressors of FUS Proteinopathy: Primary screen using FUS-linked yeast assay.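 Also: plate controls were DMSO vehicle for no effect and reference control for full effect; nearly all actives have a fitted effect of over 55% in size.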 The note with it: S. cerevisiae FUS-expressing, OD600, 24 h; at 76.6 µM (top of the series). The text has this:
Several widespread neurodegenerative diseases, including Alzheimer disease, Huntington disease, Frontotemporal Lobar Degeneration (FTLD) and Amyotrophic Lateral Sclerosis (ALS), share a common pathological feature, namely accumulation of specific protein aggregates in diseased tissue. These diseases which is associated with protein misfolding (proteinopathies) have become increasingly problematic as the population ages and life expectancies are extended. Most proteinopathies are currently incurable, a situation confounded by the fact that the basis of neurodegeneration is generally poorly understood. There exists urgent and significant need to find therapeutics that can inhibit the toxicity associated with protein aggregation. […]
For this project, a yeast model of the FUS proteinopathies (a spectrum of neurodegenerative diseases that include ALS and a subtype of FTLD) was generated and employed. […] This model was validated to be suitable for quantitative HTS (qHTS) use for finding genetic or chemical factors that restore growth. […]
Four hundred fifty microliter of cultured yeast (in 20mL rich medium) provided by Dr. Shewmaker lab was incubated at 30C at 99% humidity for 3hr. […] Absorbance at 600nm was then read using the PerkinElmer ViewLux plate reader.
In general terms: qHTS replaces the single test concentration by a dilution series.
As to `CCC(=O)N(c1ccccc1)C1(COC)CCN(CCc2cccs2)CC1`, the growth rescue (activation) is inactive: -39.9%. Turning to `CCC(=O)N(c1ccccc1)C1(COC)CCN(CCn2nnn(CC)c2=O)CC1`, the growth rescue (activation) is inactive: -25.4%.
